Measurements published in US20120059036A1, “METHOD FOR REDUCING THROMBOCYTOPENIA AND THROMBOCYTOPENIA-ASSOCIATED MORTALITY” (priority 2008, published 2012).

System: patients experiencing ST-segment elevation myocardial infarction (STEMI)
Experiment: MULTISTRATEGY safety analysis: bleeding, transfusion, thrombocytopenia and thrombocytopenia-associated mortality
Settings: At 30 d, number of patients
Experimental: The inclusion criteria were (1) chest pain for longer than 30 minutes with an electrocardiographic ST-segment elevation of 1 mm or greater in two or more contiguous electrocardiogram leads, or with a new left bundle-branch block, and (2) admission either within 12 hours of symptom onset or between 12 and 24 hours after onset with evidence of continuing ischemia. The exclusion criteria included administration of fibrinolytics in the previous 30 days, major surgery within 15 days, and active bleeding or previous stroke in the last six months. Immediately after eligibility criteria were met and before the visualization of coronary arteries through angiography, the treating physician at each investigational site performed open-label assignments of study treatments via sealed envelopes.
This type of regimen is described in U.S. Pat. No. 6,770,660. Abciximab was administered in a 0.25 mg/kg bolus, followed by 0.125 μg/kg/min continuous infusion for 12 hours. The administration of both drugs began at first medical contact, before arterial sheath insertion. […]
Discrete data were summarized as frequencies, and comparisons were made with the likelihood-ratio χ^2 test or Fisher exact test. Continuous data were expressed as mean (SD) or median and interquartile range according to their distribution; comparisons were made with a one-way analysis of variance or the Kruskal-Wallis test.

CCCCS(=O)(=O)N[C@@H](Cc1ccc(OCCCCC2CCNCC2)cc1)C(=O)O.Cl.O [Tirofiban Plus Uncoated Stent]
Moderate thrombocytoperia (<100000 cells/mm^3): 1 No.
Severe thrombocytoperia (<50000 cells/mm^3): 2 No.
